In patent US7244765B2, “Guanylhydrazone salts, compositions, processes of making and methods of using” (Cytokine Pharmasciences, Inc, priority 2004, dated 2007):

Assay: Solubility test of Semapimod salts (sonication at room temperature, filtration, HPLC against a Semapimod-4 HCl/4 H2O standard)
Type: physicochemical
Description: The product isolated as Semapimod-2 HCl/4 H2O was added to ca. 2 mL of solvents (H2O, 5% Dextrose solution, PBS, and 0.9% NaCl solution), and was sonicated at room temperature until the solid suspended in the solution. The mixture was passed through a Nylon syringe filter, and then 0.5 mL of the filtrate was diluted with MeOH before injection into the HPLC. […] For reference purpose, the solubility of Semapimod-4 HCl/4 H2O was determined according to the previous procedure.
The Semapimod salts mentioned in the above table were subjected to solubility tests using the same procedure outlined above.

Solubility in 5% dextrose solution, (mg/mL) (5% dextrose solution, molecular weight of each salt assumed 900, approximate readings): ≧49.9 mg/mL
Solubility in H2O and 5% dextrose solution (in words) (H2O and 5% dextrose solution, solutions less than saturation used in the test): soluble freely
Solubility in H2O, (mg/mL) (H2O from Pharmco, HPLC grade, molecular weight of each salt assumed 900, approximate readings): ≧59.2 mg/mL
Solubility (in words) (general statement on aqueous solubility): very good solubility
Substance: L-lactate
